Measurements published in PubChem BioAssay AID492972 (The Scripps Research Institute Molecular Screening Center, 2010).
The list shows a part of the results, in another mix than the full data. Activity calls are given as the source filed them.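 How the source made its calls: active means inhibition above the screen-wide average of all tested compounds plus 3 SD (cut at about 25% in these data); inactive means the rest.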

Sequences of proteins named here, by UniProt entry; tags and fusion partners are left off. A change or cut given only in a name is not applied to a line headed by its entry.
UniProt Q15102: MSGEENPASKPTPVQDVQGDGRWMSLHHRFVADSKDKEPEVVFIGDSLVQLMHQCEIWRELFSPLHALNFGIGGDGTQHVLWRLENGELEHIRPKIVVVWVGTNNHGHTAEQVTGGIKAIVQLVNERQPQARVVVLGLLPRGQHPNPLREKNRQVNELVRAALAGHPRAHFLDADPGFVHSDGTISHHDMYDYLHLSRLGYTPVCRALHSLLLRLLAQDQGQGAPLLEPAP

What follows are compounds tested against Platelet-activating factor acetylhydrolase IB subunit alpha1 (Homo sapiens) (UniProt Q15102) (assay: PAFAH1B3 enzyme inhibitors, primary screen, biochemical, fluorescence polarization, human (AID 492972;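 further: 0% = enzyme with DMSO only and 100% = wells lacking PAFAH1B3 protein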)). Conditions: recombinant PAFAH1B3, FP-rhodamine probe, at 3.39 µM, stronger effect = higher value.

| Structure (SMILES) | inhibition |
| --- | --- |
| O=P(Nc1nccs1)(c1ccccc1)c1nc2ccccc2s1 (configuration not stated) | inactive: 1.64% |
| O=P(Nc1nccs1)(Oc1ccccc1)Oc1ccccc1 | inactive: 0.85% |
| CCOP1(=S)c2c(C)nn(CCC#N)c2N=C(c2ccccc2F)N1C (configuration not stated) | inactive: 3.26% |
| CS(=O)(=O)c1cc([N+](=O)[O-])c2no[n+]([O-])c2c1 | inactive: 11.6% |
| Nc1ccccc1[As](=O)(O)c1ccccc1 | inactive: 10.6% |
| O=C(O)COc1ccc([As](=O)(O)O)cc1[N+](=O)[O-] | inactive: 3.88% |
| CCOP1(=S)c2c(C)nn(CCC#N)c2N=C(c2ccc(F)cc2)N1C (configuration not stated) | inactive: 0.86% |
| CN(C(=O)Cc1ccccc1)[C@@H]1CC[C@]2(CCCO2)C[C@H]1N1CCCC1 | inactive: 2.77% |
| N#CCCN(C(=O)COC(=O)C(O)(c1ccccc1)c1ccccc1)c1ccc(F)cc1 | inactive: 2.36% |
| CN(C(=O)Cc1ccc(Cl)c(Cl)c1)[C@H]1CC[C@@]2(CCCO2)C[C@@H]1N1CCCC1 | inactive: 15.7% |
| CN(C)C(=O)c1cc([N+](=O)[O-])cc2c1-c1c(cc([N+](=O)[O-])cc1[N+](=O)[O-])C2=O | active: 56.2% |
| O=[N+]([O-])c1ccc2c(c1)nnn2O | inactive: 8.63% |
| O=C(OC1CN2CCC1CC2)c1ccc(Cl)cc1 (configuration not stated) | inactive: 0.11% |
| CS(=O)(=O)c1ccc(Cl)c(NC(=O)COC(=O)C(O)(c2ccccc2)c2ccccc2)c1 | inactive: -6.21% |
| COc1cc(C(=O)NCC2(N3CCOCC3)CCCCC2)cc(Cl)c1OC(C)C | inactive: -2.96% |
| O=[As](O)(O)c1cccnc1 | inactive: -1.33% |
| O=[As](O)(c1cccc(O)c1)c1cccc(O)c1 | inactive: 5.94% |
| Cc1cccc(OCC(=O)OC2CN3CCC2CC3)c1 (configuration not stated) | inactive: -6.47% |
| Nc1cccc2c([As](=O)(O)O)cccc12 | inactive: 17.3% |
| Cc1ccc(NCCc2c([N+](=O)[O-])cc([N+](=O)[O-])cc2[N+](=O)[O-])cc1 | inactive: 23.4% |
| CCCOP(=S)(Nc1nc(N)cc(=O)[nH]1)OCCC | inactive: 7.97% |
| CCOP(=O)(Nc1cccc2ccccc12)OCC | inactive: 3.03% |
| COc1cc(C2NCCC3(OCCO3)C2(C)C)cc(OC)c1OC (configuration not stated) | inactive: 6.31% |
| CCOP(=O)(NC(=NC(C)c1ccccc1)NC(C)c1ccccc1)OCC (configuration not stated) | inactive: 5.43% |
| O=P1(Nc2ccccn2)COc2ccccc2OC1 | inactive: -0.16% |
| CCC1=CC2Cc3nc4ccc(Cl)cc4c(N)c3C(C1)C2 (configuration not stated) | inactive: 4.2% |

| Structure (SMILES) | inhibition |
| --- | --- |
| CCOP(=O)(Nc1ccc(C)cn1)OCC | inactive: 0.25% |
| CC(C)(C)C(=O)NC(Sc1ncccn1)C(Cl)(Cl)Cl (configuration not stated) | inactive: 5.5% |
| Clc1n[nH]nc1-c1nn[nH][15n]1 | inactive: 4.8% |
| COc1ccccc1CNC(=O)COC(=O)C(O)(c1ccccc1)c1ccccc1 | inactive: -1.08% |
| CC(C)/C=N\N=C(\N)N[N+](=O)[O-] | inactive: 7.3% |
| CN(C(=O)Cc1ccc(Cl)c(Cl)c1)[C@@H]1CCCC[C@H]1N1CCCC1 | inactive: 3.85% |
| CC1(CBr)Cn2c(nc3ccccc3c2=O)S1 (configuration not stated) | inactive: 5.07% |
| CC1CCC(C(C)C)C(OP(=O)(Nc2ccccn2)c2ccccc2)C1 (configuration not stated) | inactive: 1.18% |
| Cc1ccc(C(=O)OC2CN3CCC2CC3)cc1 (configuration not stated) | inactive: 8.23% |
| Cc1nn(-c2ccccc2)c2c1P(=O)(N1CCOCC1)N(C)C(c1ccccc1)=N2 (configuration not stated) | inactive: 10.8% |
| CN(C)C1(CNC(=O)c2ccc(S(C)(=O)=O)cc2)CCCCC1 | inactive: 2.17% |
| CCCC1OP(=O)(Nc2ccccc2)OCC1CC (configuration not stated) | inactive: 6.08% |
| O=C(/C=C/c1ccccc1)OC1CN2CCC1CC2 (configuration not stated) | inactive: 2.22% |
| O=P1(Nc2ncccn2)COc2ccccc2OC1 | inactive: 0.63% |
| Nc1cccc([As](=O)(O)c2ccccc2)c1 | inactive: 2.81% |
| O=P1(Nc2ccc(Br)cn2)COc2ccccc2OC1 | inactive: 3.47% |
| NS(=O)(=O)c1cccc(NC(=O)COC(=O)C(O)(c2ccccc2)c2ccccc2)c1 | inactive: 4.44% |
| O=[As](O)(c1cccs1)c1cccs1 | inactive: -2.48% |
| Cc1ccc(OCC(=O)OC2CN3CCC2CC3)cc1 (configuration not stated) | inactive: 4.02% |
| CCOC(=O)Nc1ccc([As](=O)(O)O)c(O)c1 | inactive: 8.2% |
| CC1CCNP(=O)(N(CCCl)CCCl)O1 (configuration not stated) | inactive: 3.82% |
| Cc1cc(SC(NC(=O)c2ccccc2)C(Cl)(Cl)Cl)nc(C(C)C)n1 (configuration not stated) | inactive: -0.86% |
| CCCCOc1ccc(C(=O)NCC2(N3CCCCC3)CCCCC2)cc1OC | inactive: -8.88% |
| CCOC(=O)Nc1cccc([As](=O)(O)O)c1 | inactive: -1.51% |
| O=P(Nc1ccccn1)(c1cccc2ccccc12)c1cccc2ccccc12 | inactive: 2.59% |
| Cc1cc(SC(NC=O)C(Cl)(Cl)Cl)ncn1 (configuration not stated) | inactive: 0.31% |

| Structure (SMILES) | inhibition |
| --- | --- |
| O=[N+]([O-])c1ccc(Nc2ccc(Oc3ccc([N+](=O)[O-])cc3[N+](=O)[O-])cc2)c([N+](=O)[O-])c1 | inactive: 5.98% |
| COP1(=S)c2c(C)nn(CCC#N)c2N=C(c2ccc(F)cc2)N1C (configuration not stated) | inactive: -0.65% |
| O=C(Nc1ccncc1[N+](=O)[O-])c1ccc([N+](=O)[O-])cc1[N+](=O)[O-] | inactive: 2.04% |
| O=C(COc1ccccc1)OC1CN2CCC1CC2 (configuration not stated) | inactive: 12.2% |
| O=C(OC1CN2CCC1CC2)c1cccc([N+](=O)[O-])c1 (configuration not stated) | inactive: 1.59% |
| CCOC(=O)c1ccc(NC(=O)C(C)(CCl)SC)cc1 (configuration not stated) | inactive: -0.49% |
| CCC(C)N(CC(C)C)C(=S)SC(NC(C)=O)C(Cl)(Cl)Cl (configuration not stated) | inactive: 7.41% |
| Cc1c2c(nc3ccccc13)SC(C(Cl)Cl)C2 (configuration not stated) | inactive: 2.68% |
| Cc1cc(=O)[nH]c(N[N+](=O)[O-])n1 | inactive: -1.8% |
| O=C(OC1CN2CCC1CC2)C12CC3CC(CC(C3)C1)C2 (configuration not stated) | inactive: 0.1% |
| O=P1(N(CCCl)CCCl)Nc2ccccc2N1 | inactive: 6.18% |
| O=P1(N(CCCl)CCCl)OCCCN1CCCl (configuration not stated) | inactive: 4.51% |
| COc1cc(I)ccc1[As](=O)(O)O | inactive: 0.4% |
| COc1ccc2nc(NP(=O)(c3ccccc3)c3ccccc3)sc2c1 | inactive: 5.69% |
| O=[N+]([O-])c1cc(Oc2ccc([N+](=O)[O-])cc2C(F)(F)F)cc([N+](=O)[O-])c1 | inactive: 6.31% |
| COc1ccc(N/C(=N/P(=O)(N2CCOCC2)N2CCOCC2)N2CCOCC2)cc1 | inactive: -1% |
| COc1cc(C(=O)NCC2(N3CCOCC3)CCCCC2)ccc1OCC(C)C | inactive: 12.9% |
| O=[N+]([O-])c1ccc(-c2cc([N+](=O)[O-])c(O)c([N+](=O)[O-])c2)cc1 | inactive: 9.74% |
| C[As](=O)(O)c1cccc(C(=O)O)c1 | inactive: 4.7% |
| O=[As](O)(c1ccc(O)cc1)c1ccccc1O | inactive: 6.25% |
| Cc1ccc(OP(=O)(Nc2ccc([N+](=O)[O-])cn2)Oc2ccc(C)cc2)cc1 | inactive: -6.21% |
| Cc1ccc2nc3c(c(C)c2c1)CC(C(Cl)Cl)S3 (configuration not stated) | inactive: 10.3% |
| ClCCSc1nnc(-c2cccnc2)o1 | inactive: 3.56% |
| CC(C)c1ccc(OP(=O)(Nc2ccccn2)Oc2ccccc2F)cc1 (configuration not stated) | inactive: 6.35% |
| COC(=O)C1(C)COP(=O)(N2CCCCCC2)OC1 (configuration not stated) | inactive: 5.71% |
| O=[N+]([O-])c1cc([N+](=O)[O-])c(-c2ccn[nH]2)s1 | inactive: 3.26% |

| Structure (SMILES) | inhibition |
| --- | --- |
| O=C(OC1CN2CCC1CC2)c1cccc2[nH]cnc12 (configuration not stated) | inactive: 2.56% |
| CCN(CC)C(=S)SC(NC=O)C(Cl)(Cl)Cl (configuration not stated) | inactive: 1.59% |
| O=P(Nc1nc2ccc(Cl)cc2s1)(c1ccccc1)c1ccccc1 | inactive: 4.9% |
| CCCC1OP(N)(=O)OCC1CC (configuration not stated) | inactive: 3.74% |
| O=C(O)c1ccccc1[As](=O)(O)O | inactive: 4.91% |
| CC(=O)Nc1ccc([As](=O)(O)O)cc1 | inactive: 4.07% |
| Cc1ccc(NP(=O)(Oc2ccccc2F)Oc2ccccc2F)nc1 | inactive: -0.69% |
| CN(C(=O)Cc1ccc(Cl)c(Cl)c1)[C@H]1CCCC[C@@H]1N1CCCC1 | inactive: 0.1% |
| CCOP(=O)(Nc1ccccc1)OCC | inactive: 15.3% |
| Cc1cc(SC(NC(=O)c2ccc(F)cc2)C(Cl)(Cl)Cl)ncn1 (configuration not stated) | inactive: 7.19% |
| Nc1cccc2ccc([As](=O)(O)O)cc12 | inactive: 22.3% |
| CCN(N=Nc1nonc1N)c1nonc1N | inactive: 2.92% |
| Cc1ccc(N/C(=N/P(=O)(N2CCOCC2)N2CCOCC2)N2CCOCC2)cc1 | inactive: 18.2% |
| CN(C(=O)Cc1ccc(Cl)c(Cl)c1)[C@H]1CCCC[C@H]1N1CCCC1 | inactive: 1.17% |
| NC(=O)c1cc([N+](=O)[O-])cc([N+](=O)[O-])c1N | inactive: 1.06% |
| Clc1ccc(Cl)c(NC2=NCC(CBr)S2)c1 (configuration not stated) | inactive: 9.33% |
| CN1CCCC(OC(=O)C(c2ccccc2)c2ccccc2)C1 (configuration not stated) | inactive: 3.1% |
| COc1ccccc1OP(=O)(Nc1ccc(C)cn1)Oc1ccccc1OC | inactive: -2.74% |
| O=C(NC(Sc1ccncn1)C(Cl)(Cl)Cl)c1ccccc1 (configuration not stated) | inactive: 9.94% |
| Oc1ccccc1CNc1ccccn1 | inactive: 1.06% |
| CC(C)CC(=O)NC(Sc1ccc(Cl)cc1)C(Cl)(Cl)Cl (configuration not stated) | inactive: -2.26% |
| Nc1cc(N)c2nonc2c1[N+](=O)[O-] | inactive: 8.38% |
| COc1ccc(C2=NCC(CBr)S2)cc1 (configuration not stated) | inactive: 0.51% |
| CCc1nc2c(n1)c1c(non1O)c1c2no[n+]1[O-] | inactive: 23.6% |
